According to ChEMBL document CHEMBL1122156, “A comparison of the inhibitory action of 5-(substituted-benzyl)-2,4-diaminopyrimidines on dihydrofolate reductase from chicken liver with that from bovine liver” (J Med Chem, 1982):

target: T1, Dihydrofolate reductase (Gallus gallus) (UniProt P00378); experiment: Inhibitory activity against chicken Dihydrofolate reductase at pH 7.2.
T1 sequence (whole entry): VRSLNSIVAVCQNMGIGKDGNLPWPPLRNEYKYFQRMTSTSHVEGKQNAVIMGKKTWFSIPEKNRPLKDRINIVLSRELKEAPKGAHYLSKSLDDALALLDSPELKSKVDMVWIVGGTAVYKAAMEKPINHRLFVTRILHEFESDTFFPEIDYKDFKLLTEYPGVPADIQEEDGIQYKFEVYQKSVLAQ

Compound	Log 1/Ki app
COCCOc1ccc(Cc2cnc(N)nc2N)cc1	4.26
NC(=O)COc1cccc(Cc2cnc(N)nc2N)c1	4.27

Now from value to molecule:

Log 1/Ki app	Compound
4.71	CCCCCCOc1ccc(Cc2cnc(N)nc2N)cc1
3.91	COCCOc1ccc(Cc2cnc(N)nc2N)cc1OCCOC

target: T1, Dihydrofolate reductase (Gallus gallus)

Compound	Log 1/Ki app
Nc1ncc(Cc2cccc(Br)c2)c(N)n1	5.03
Cc1ccc(Cc2cnc(N)nc2N)cc1	4.56
CCCCOc1ccc(Cc2cnc(N)nc2N)cc1	4.67
CS(=O)(=O)Oc1cccc(Cc2cnc(N)nc2N)c1	4.33
Nc1ncc(Cc2ccc(Cl)cc2)c(N)n1	4.83
Nc1ccc(Cc2cnc(N)nc2N)cc1	3.73
Nc1ncc(Cc2ccc(O)c(O)c2)c(N)n1	3.59

Next, values leading:

Log 1/Ki app	Compound
4.31	Nc1ncc(Cc2cccc(CO)c2)c(N)n1
4.92	Nc1ncc(Cc2cccc(C(F)(F)F)c2)c(N)n1
4.79	Nc1ncc(Cc2ccc(Br)cc2)c(N)n1
4.34	CC(=O)Nc1ccc(Cc2cnc(N)nc2N)cc1[N+](=O)[O-]
4.37	COCc1cccc(Cc2cnc(N)nc2N)c1
3.87	Nc1ncc(Cc2cccc(O)c2)c(N)n1
3.23	Nc1ncc(Cc2cc(CO)cc(CO)c2)c(N)n1
